Results published in patent EP2924037A1, “QUINAZOLINE DERIVATE AND USE THEREOF AS APOPTOSIS INHIBITOR” (Linx Pharmaceutical Co., Ltd., priority 2012, dated 2013).

Legend:
pgk1 [1] = biological target: T1, pgk1 (Mus musculus, UniProt P09411); experiment: Activity assay of pgk1 (GAPDH-coupled, absorbance at 340 nm); type: biochemical; set-up: His; made in house; host or cells: E. coli
T1 sequence (P09411 1-417): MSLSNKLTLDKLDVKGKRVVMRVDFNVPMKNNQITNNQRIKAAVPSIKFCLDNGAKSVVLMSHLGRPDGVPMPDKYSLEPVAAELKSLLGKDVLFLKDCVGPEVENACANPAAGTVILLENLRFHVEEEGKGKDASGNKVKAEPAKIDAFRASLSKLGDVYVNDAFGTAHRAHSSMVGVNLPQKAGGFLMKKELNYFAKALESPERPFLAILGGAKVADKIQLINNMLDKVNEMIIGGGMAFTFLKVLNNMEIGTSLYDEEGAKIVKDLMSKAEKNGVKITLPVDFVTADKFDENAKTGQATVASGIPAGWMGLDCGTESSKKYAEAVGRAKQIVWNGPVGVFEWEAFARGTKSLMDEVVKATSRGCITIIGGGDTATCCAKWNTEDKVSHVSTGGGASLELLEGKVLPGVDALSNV
Experimental: The recombinant mouse pgk1 protein (His-pgk1) was expressed in the E. Coli. The protein was purified by a Nickel column. The proteins were diluted to 0.15 unit /mL. Then, different concentrations of terazosin were added to determine the pgk1 activity.
According to the components of Colorimetric GAPDH Assay Kit (ScienCells), the reaction solution was prepared with solutions of GAPDH, HEPES, and MgSO4. A predetermined concentration of the compound of Formula I was added to the reaction solution (30 mM Hepes, 3 mM ATP, 0.22 mM NADH, 10 mM MgSO4, 10 mM 3-PGA, 3-4 U/ml GAPDH, pH 7.5). Absorbance was measured at 25 °C with a spectroscope (340 nm). Relative activity of pgk1 was calculated based on the changes of absorbance value within 1-10 minutes. The activity has a positive correlation with the changes of absorbance value. The absorbance of the same compound at 340 nm was subtracted in the test group.

pgk1 [2] = biological target: T1, pgk1; conditions: mouse pgk1 expressed and purified from bacteria, terazosin agarose beads

Compound: COc1cc2nc(N3CCN(C(=O)C4CCCO4)CC3)nc(N)c2cc1OC (stereo not drawn) [Co.33, (4-(4-amino-6,7-dimethoxyquinazolin-2-yl)piperazin-1-yl)(tetrahydrofuran-2-yl)methanone]
- effect on the enzymatic activity of pgk1 (pgk1 [1]; 0.4µM terazosin, in vitro): reduced the extent to which the enzymatic activity of pgk1 can be increased
- fold induction at 0.05 µM (pgk1 [1]; read-out: increase of the enzymatic activity of pgk1): ~3
- direct binding to pgk1 (pgk1 [2]): can directly bind pgk1 in vitro
